Screening results as filed in PubChem BioAssay.
Yeast UUG start – alters start codon recognition fidelity in yeast; S. cerevisiae UUG-firefly luciferase reporter, luminescence/redox ratio; activity score, % at 18.7 µM; actives 0.13% (n = 350,000); AID 602363;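 active = replicate mean at a twofold rise or more, about +100% in these data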;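 also: firefly luciferase made from a UUG start codon reports start codon fidelity; reporter light over untreated wells divided by growth signal over untreated wells; some hits fall short of that in this replicate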
S100A4 MyoIIA – inhibitors of human S100A4 binding to myosin IIA peptide. inhibition, % at 10.7 µM. actives 0.14% (n = 360,000). AID 652163. P26447. S100A4/TAMRA-MyoIIA peptide fluorescence polarization;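 active means mean inhibition of at least 70% across replicates, with every replicate also reaching that level; inconclusive means mean inhibition reaches 70% but some replicates fall short; inactive means mean inhibition below 70%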
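Test system – S100A4 monomer (human) · Compound – single-point compound testing · Schedule – 5 min incubation before reading · Probe or stimulus – TAMRA-labelled myosin IIA heavy-chain peptide probe, 5 nM · Benchmarks – neutral control DMSO, positive control TFP · Medium – Calcium-containing HEPES buffer, pH 7.2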
ERAP1 HTS inh – inhibitors of human ERAP1 aminopeptidase. Q9NZ08. recombinant ERAP1, Leu-AMC fluorescence, 60 min. inhibition, % at 10.7 µM. actives 0.15% (n = 340,000). AID 652197;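 active means mean replicate inhibition of at least 30%, or all replicates individually reaching that 30% level; inactive means mean below 30% and not every replicate reaching it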;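 further: 0% = neutral control wells and 100% = L-leucinethiol positive control wells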
ARNT-TACC3 inh – disruptors of human ARNT/TACC3 interaction; AID 623870; AlphaScreen His-ARNT PAS-B/GST-TACC3 binding, luminescence; TACC3 fragment carries E629A point mutation; Q9Y6A5; inhibition, % at 9.99 µM; actives 0.66% (n = 390,000);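 active means mean inhibition of replicates at least 50% and at least half of replicates each reaching 50%; inconclusive means half or more replicates reach 50% but mean below 50%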;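 further: 0% = complete ARNT plus TACC3 wells and 100% = ARNT alone without TACC3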
AF4-AF9 inh – blocks AF4 peptide binding to human AF9. P42568. AlphaScreen, biotin-AF4 peptide binding to FLAG-AF9. inhibition, % at 10 µM. actives 0.47% (n = 350,000);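 active means every replicate reaching a set inhibition limit, whatever the replicate mean, cut at about 25% in these data; inconclusive means mean inhibition reaches that limit but some replicates miss it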;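 further: 0% = plate neutral control median and 100% = total signal loss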
E-sel inducer – induces E-selectin expression in human endothelial cells; activation, % at 7.58 µM; AID 686992; actives 0.37% (n = 260,000); HUVEC E-selectin immunofluorescence imaging; normalized: neutral wells 0, TNF-alpha wells 100;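 active means mean E-selectin-positive cell signal at least 10% of the positive control, reached in at least 60% of replicates, without over 20% cell loss; inconclusive means no rule given, readout overlaps actives, possibly toxicity-flagged; inactive means the rest, including those meeting only one limit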
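material = human umbilical vein endothelial cells (HUVEC), E-selectin induction | quantity = 3,000 cells/well | medium = EGM-2 growth medium on 0.1% gelatin-coated wells | technique = immunofluorescence imaging | read-out basis = % PE-positive cells | control set = TNF-alpha positive control, DMSO neutral control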
The depositor's hits bear a star; u = inconclusive; x = not tested or not shown; ! = repeats disagree. Hits are enriched below; roughly 1.3% of the tested compounds scored in any of these assays.

SMILES | Yeast UUG start | S100A4 MyoIIA | ERAP1 HTS inh | ARNT-TACC3 inh | AF4-AF9 inh | E-sel inducer
CC(=O)Nc1ccc2c(c1)C(=O)N(C)[C@@H]1CC[C@H](CC(=O)NCc3ccccc3)O[C@@H]1CO2 | -3 | -2 | 1 | -9 | 1 | 0
Cc1ccccc1/C=C/c1cc[n+](C)cc1 | x | -3 | 31* | -6 | 2 | 1
C[C@H](CO)N1C[C@H](C)[C@@H](CN(C)C(=O)C2CCC2)Oc2cc(-c3ccccc3)ccc2S1(=O)=O | x | x | x | x | x | 1
COc1ccc(NC(=O)N(C)C[C@H]2Oc3c(NS(=O)(=O)c4cn(C)cn4)cccc3C(=O)N([C@H](C)CO)C[C@H]2C)cc1 | 9 | -8 | 3 | -6 | -2 | u
COc1ccc(NC(=O)N(C)C[C@H]2Oc3c(NS(=O)(=O)c4cn(C)cn4)cccc3C(=O)N([C@@H](C)CO)C[C@@H]2C)cc1 | 1 | 3 | 2 | 1 | -3 | 39*
COc1ccc(NC(=O)N(C)C[C@@H]2Oc3c(NS(=O)(=O)c4cn(C)cn4)cccc3C(=O)N([C@@H](C)CO)C[C@H]2C)cc1 | -3 | 5 | 3 | -3 | -3 | 28*
COc1ccc(S(=O)(=O)Nc2cccc3c2O[C@H](CN(C)C(=O)Nc2c(C)noc2C)[C@@H](C)CN([C@H](C)CO)C3=O)cc1 | -5 | 5 | 5 | -3 | -1 | 41*!
CCC(=O)N(C)C[C@@H]1Oc2cc(C#CC3CC3)ccc2S(=O)(=O)N([C@H](C)CO)C[C@H]1C | -9 | -3 | 2 | 0 | -6 | 0
CC(=O)N1[C@@H]2c3ccc(-c4ccc(F)cc4)c(=O)n3C[C@@H]2[C@@H](CO)[C@@H]1C(=O)N(C)C | x | -2 | x | 31 | x | 0
Cc1ccc(C(=O)NNC(=S)NC(=O)COc2ccccc2)cc1 | x | 2 | 7 | 7 | 0 | x
Cc1cccc(OCC(=O)NC(=S)NNC(=O)c2ccncc2)c1 | -20 | 0 | -1 | 56* | -6 | 0
Cn1c(-c2ccccc2)cc(=NNS(C)(=O)=O)c2cc(S(=O)(=O)O)ccc21 | -9 | -2 | 37* | x | -5 | 0
C[C@@H]1CN([C@H](C)CO)C(=O)Cc2cc(NC(=O)Cc3ccccc3)ccc2O[C@@H]1CN(C)Cc1ccc(C(=O)O)cc1 | 5 | 0 | 2 | -10 | -3 | -1
Cc1c(O)c(CN2CCCCC2)cc2c3c(c(=O)oc12)CCC3 | -10 | x | x | -1 | x | x
Cc1cc(N=Nc2ccc(Cl)cc2)cc(CN2CCCC2)c1O | -9 | -4 | x | 25 | 49* | 0
COc1ccccc1NC(=O)N1C[C@@H]2N[C@H](C1)C2c1ccc(-c2cccc(C(=O)N(C)C)c2)cc1 (stereo partly drawn) | x | 0 | 0 | x | -4 | -1
COc1cc(C=NO)nc(-c2ccccn2)c1 | x | 0 | 3 | 59* | -1 | 0
O=C(NCc1ccccc1)c1cc(-c2ccncc2)nc2ccc(S(=O)(=O)N3CCOCC3)cc12 | x | 0 | 0 | -5 | -2 | x
Cc1ccc(CCNC(=O)c2cc(-c3ccncc3)nc3ccc(S(=O)(=O)N4CCOCC4)cc23)cc1 | -4 | 148* | 1 | -4 | 0 | x
COc1ccc(CN(C)C[C@@H]2Oc3ccc(N(C)C)cc3CC(=O)N([C@H](C)CO)C[C@H]2C)cc1 | -17 | 32 | 0 | -6 | 0 | u
Cc1cccc(C)c1NC(=O)CCCN1C(=O)C(c2ccccc2)Oc2cccnc21 (stereo not drawn) | -5 | -4 | 2 | -6 | 1 | x
Cc1cccc(NC(=O)CCCN2C(=O)C(c3ccccc3)Oc3cccnc32)c1C (stereo not drawn) | x | -3 | -3 | 2 | 2 | 57*
C[C@@H]1CN([C@H](C)CO)C(=O)c2cc(NC(=O)Cn3cnnn3)ccc2O[C@@H]1CN(C)S(=O)(=O)c1cn(C)cn1 | -3 | 9 | -1 | 2 | -4 | 0
CCN1C(=O)/C(=C/C=C2/Sc3ccc4ccccc4c3N2CCO)SC1=S | -16 | -47 | -2 | -5 | -11 | 34*
COc1ccc(NC(=O)Nc2ccc3c(c2)[C@@H]2C[C@H](CC(=O)NC4CCCCC4)O[C@H](CO)[C@@H]2O3)cc1 | x | -2 | 0 | -8 | -5 | 1
O=C(NCCS(=O)(=O)NCCCc1ccccc1)c1ccccc1 | -4 | 94* | 1 | 0 | -23 | 0
O=C(NCCS(=O)(=O)NCCc1ccccc1)c1ccccc1 | -1 | 0 | -5 | -18 | -22 | 0
C[C@@H]1CN([C@@H](C)CO)C(=O)c2cc(NC(=O)CCC(F)(F)F)ccc2O[C@@H](C)CCCCO[C@H]1CN(C)C(=O)C1CCCCC1 | 22 | 3 | -1 | -2 | -3 | 0
CCOc1ccc(-c2nnc3n2N=C(c2ccc(OC)cc2)CS3)cc1 | -13 | x | x | -8 | x | x
COc1ccc(C2=Nn3c(nnc3-c3ccccn3)SC2)cc1 | -25 | 0 | 4 | 82* | 7 | x
O=C(NCC(=O)N1CCCC(C(F)(F)F)C1)c1cccs1 (stereo not drawn) | -15 | -3 | 1 | -2 | 33* | -2
Cn1cnc(CCNC(=O)C[C@@H]2CC[C@H]3[C@@H](COC[C@H](O)CN3C(=O)C3CC3)O2)c1 | x | 6 | 2 | 2 | -1 | 0
O=C(C[C@H]1CC[C@H]2NC[C@H](O)COC[C@@H]2O1)NCCN1CCCCC1 | x | 115* | 0 | 9 | 1 | 0
Cn1cnc(CCNC(=O)C[C@@H]2CC[C@H]3[C@@H](COC[C@@H](O)CN3C(=O)C3CC3)O2)c1 | x | 81* | 0 | 1 | -1 | 0
O=C(C[C@@H]1CC[C@@H]2[C@H](COC[C@H](O)CN2C(=O)c2cccnc2)O1)NCc1ccc(Cl)cc1 | 18 | 94* | -6 | -13 | 0 | 0
O=C(C[C@@H]1CC[C@H]2[C@@H](COC[C@@H](O)CN2CC2CCCCC2)O1)NCc1ccc(F)cc1 | 16 | 116* | 0 | -10 | 1 | 0

An excerpt from above in order of count of non-hydrogen atoms, high to low:
SMILES | Yeast UUG start | S100A4 MyoIIA | ERAP1 HTS inh | ARNT-TACC3 inh | AF4-AF9 inh | E-sel inducer
C[C@@H]1CN([C@@H](C)CO)C(=O)c2cc(NC(=O)CCC(F)(F)F)ccc2O[C@@H](C)CCCCO[C@H]1CN(C)C(=O)C1CCCCC1 | 22 | 3 | -1 | -2 | -3 | 0
COc1ccc(NC(=O)Nc2ccc3c(c2)[C@@H]2C[C@H](CC(=O)NC4CCCCC4)O[C@H](CO)[C@@H]2O3)cc1 | x | -2 | 0 | -8 | -5 | 1
Cn1cnc(CCNC(=O)C[C@@H]2CC[C@H]3[C@@H](COC[C@H](O)CN3C(=O)C3CC3)O2)c1 | x | 6 | 2 | 2 | -1 | 0
O=C(NCCS(=O)(=O)NCCCc1ccccc1)c1ccccc1 | -4 | 94* | 1 | 0 | -23 | 0

Additional compounds
SMILES | Yeast UUG start | S100A4 MyoIIA | ERAP1 HTS inh | ARNT-TACC3 inh | AF4-AF9 inh | E-sel inducer
O=C(C[C@H]1CC[C@@H]2[C@H](COC[C@@H](O)CN2CC2CCCCC2)O1)NCc1ccc(Cl)cc1 | 3 | -3 | 0 | 11 | 0 | 0
O=C(C[C@H]1CC[C@H]2[C@@H](COC[C@@H](O)CN2C(=O)c2cccnc2)O1)NCc1ccc(Cl)cc1 | 1 | -27 | -4 | -5 | 0 | 0
C[C@H](NC(=O)C[C@H]1CC[C@H]2[C@@H](COC[C@H](O)CN2C(=O)Nc2ccccc2)O1)c1ccccc1 | 26 | 3 | 43* | 3 | -2 | 0
CCCNC(=O)N1C[C@H](O)COC[C@@H]2O[C@@H](CC(=O)NCCCN3CCOCC3)CC[C@H]21 | 16 | 107*! | -6 | -8 | -9 | 0
